What all share (format): biochemical
For assay [1], the target named is Human c20S proteasome β1 subunit (Homo sapiens, UniProt P28072+Q99436). The assay is described as follows: In vitro proteasome assay, z-LLE-amc substrate. The note with it: purified human c20S with PA28α, mean ± SD.
Assay [2] addresses Human c20S proteasome β2 subunit (Homo sapiens, UniProt P49720+Q99436). The assay is described as follows: In vitro proteasome assay, z-VLR-amc substrate. To be noted: read-out: Human c20S proteasome inhibition of β2 subunit (IC50); purified human c20S with PA28α, mean ± SD.
Assay [3] concerns the target Human c20S proteasome β5 subunit (Homo sapiens, UniProt P20618+P28074). The assay is described as follows: In vitro proteasome assay, suc-LLVY-amc substrate. The note with it: read-out: Human c20S proteasome inhibition of β5 subunit (IC50); purified human c20S with PA28α, mean ± SD.

The values below come from publication PMC12691669, “Inhibitors of the 20S proteasome β5 subunit as potent and selective agents against Trichomonas vaginalis” (Antimicrobial Agents and Chemotherapy, 2025).

SMILES strings stand for the structures.

For orientation: IC50 means the concentration that gives 50% inhibition.

As for `COc1ccc(C[C@@H](C(=O)N[C@@H](CC(=O)N2CCCC2)C(=O)N[C@@H](Cc2ccc(F)cc2)C(=O)N[C@@H](Cc2ccc(F)cc2F)C(=O)[C@@]2(C)CO2)N2CCCC2=O)cc1`, the “Human c20S proteasome inhibition of β1 subunit (IC50)” value (“Human c20S proteasome inhibition” for short) in assay [1] is “No inhibition”. Also, the IC50 in assay [2] was 4080 nM; in assay [3], 10.8 nM.
Take `CCCCCC(=O)N[C@@H](Cc1cccnc1)C(=O)N[C@@H](CCCC)C(=O)N[C@@H](Cc1ccccc1)C(=O)[C@@]1(C)CO1`: in assay [1], the “Human c20S proteasome inhibition” value is listed as “No inhibition”. Moreover, the IC50 in assay [2] came to 3950 nM; in assay [3], 13.7 nM.
Consider `CCCC[C@H](NC(=O)[C@H](CC(=O)N1CCCC1)NC(=O)[C@H](Cc1ccc(OC)cc1)N1CCCC1=O)C(=O)N[C@@H](Cc1ccc(F)cc1F)C(=O)[C@@]1(C)CO1` [compound 45], for which, in assay [1], the “Human c20S proteasome inhibition” value is recorded as “No inhibition”. For the same compound, the concentration for half-maximal inhibition (IC50) is 1130 nM in assay [2] and 4.73 nM in assay [3].
